This passage reports inhibition results from ChEMBL document CHEMBL5518223, “Structure-Guided Elaboration of a Fragment-Like Hit into an Orally Efficacious Leukotriene A4 Hydrolase Inhibitor” (J Med Chem, 2024).

Sequences of proteins named here, by UniProt entry; tags and fusion partners are left off. A change or cut given only in a name is not applied to a line headed by its entry.
UniProt P35968, whole entry: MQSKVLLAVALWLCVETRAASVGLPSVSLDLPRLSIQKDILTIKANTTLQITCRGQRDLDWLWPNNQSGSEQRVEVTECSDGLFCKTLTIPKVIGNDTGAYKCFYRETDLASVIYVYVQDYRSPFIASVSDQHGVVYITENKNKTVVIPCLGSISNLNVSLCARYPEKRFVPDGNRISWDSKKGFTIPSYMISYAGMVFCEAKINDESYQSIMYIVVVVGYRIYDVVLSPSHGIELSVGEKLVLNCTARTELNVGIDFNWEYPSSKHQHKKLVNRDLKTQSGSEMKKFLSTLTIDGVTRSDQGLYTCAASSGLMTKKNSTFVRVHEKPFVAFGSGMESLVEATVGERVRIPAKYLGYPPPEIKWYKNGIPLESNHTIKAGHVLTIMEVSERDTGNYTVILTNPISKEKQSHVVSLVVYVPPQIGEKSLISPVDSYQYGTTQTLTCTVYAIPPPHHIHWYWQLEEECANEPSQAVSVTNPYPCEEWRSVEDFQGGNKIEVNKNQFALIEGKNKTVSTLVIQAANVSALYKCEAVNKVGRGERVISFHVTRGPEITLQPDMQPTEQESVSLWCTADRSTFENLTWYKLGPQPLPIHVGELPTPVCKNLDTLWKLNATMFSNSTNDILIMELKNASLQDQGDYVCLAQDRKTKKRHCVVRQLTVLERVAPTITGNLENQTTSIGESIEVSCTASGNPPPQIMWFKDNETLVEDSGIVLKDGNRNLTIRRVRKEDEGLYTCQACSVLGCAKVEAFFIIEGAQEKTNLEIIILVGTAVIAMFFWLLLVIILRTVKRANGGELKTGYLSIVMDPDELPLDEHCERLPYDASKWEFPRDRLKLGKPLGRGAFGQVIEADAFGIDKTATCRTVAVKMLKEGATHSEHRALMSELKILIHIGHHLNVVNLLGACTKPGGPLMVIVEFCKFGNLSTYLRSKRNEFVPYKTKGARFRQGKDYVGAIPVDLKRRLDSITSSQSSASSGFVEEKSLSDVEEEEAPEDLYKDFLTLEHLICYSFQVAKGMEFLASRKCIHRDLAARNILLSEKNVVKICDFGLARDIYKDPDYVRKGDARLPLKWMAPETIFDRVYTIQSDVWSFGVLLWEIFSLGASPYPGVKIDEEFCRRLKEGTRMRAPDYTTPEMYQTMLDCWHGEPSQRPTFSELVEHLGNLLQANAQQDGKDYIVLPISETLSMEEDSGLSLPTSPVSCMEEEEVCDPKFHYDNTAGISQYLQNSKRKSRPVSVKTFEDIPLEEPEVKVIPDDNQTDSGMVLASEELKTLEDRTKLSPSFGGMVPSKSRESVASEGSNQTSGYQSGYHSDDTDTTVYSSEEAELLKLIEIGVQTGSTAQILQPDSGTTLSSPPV
UniProt P11229: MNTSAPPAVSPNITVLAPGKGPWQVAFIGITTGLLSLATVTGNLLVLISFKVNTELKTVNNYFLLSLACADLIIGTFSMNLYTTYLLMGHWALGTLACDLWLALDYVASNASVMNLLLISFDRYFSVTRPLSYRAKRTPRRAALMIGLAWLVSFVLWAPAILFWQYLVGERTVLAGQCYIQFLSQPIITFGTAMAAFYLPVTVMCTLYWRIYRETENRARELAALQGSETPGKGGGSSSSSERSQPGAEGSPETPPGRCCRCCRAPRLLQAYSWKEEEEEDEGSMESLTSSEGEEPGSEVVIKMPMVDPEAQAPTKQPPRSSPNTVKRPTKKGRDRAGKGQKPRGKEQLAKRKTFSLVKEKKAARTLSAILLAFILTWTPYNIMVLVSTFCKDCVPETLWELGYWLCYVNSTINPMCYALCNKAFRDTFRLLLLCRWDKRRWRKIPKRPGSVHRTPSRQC
UniProt Q9Y5N1: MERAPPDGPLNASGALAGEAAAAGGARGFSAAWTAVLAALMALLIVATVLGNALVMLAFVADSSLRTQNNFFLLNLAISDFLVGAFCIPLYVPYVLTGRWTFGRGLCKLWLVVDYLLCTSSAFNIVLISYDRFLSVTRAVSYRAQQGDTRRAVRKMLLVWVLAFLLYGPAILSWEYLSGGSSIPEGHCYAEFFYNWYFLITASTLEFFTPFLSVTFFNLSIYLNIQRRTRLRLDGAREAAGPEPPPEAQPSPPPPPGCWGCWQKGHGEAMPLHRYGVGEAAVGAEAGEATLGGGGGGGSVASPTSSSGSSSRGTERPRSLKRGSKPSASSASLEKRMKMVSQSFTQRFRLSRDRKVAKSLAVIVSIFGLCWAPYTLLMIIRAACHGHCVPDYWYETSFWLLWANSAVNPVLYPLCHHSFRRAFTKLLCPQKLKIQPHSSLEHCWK

Experiment [1] concerns the target Vascular endothelial growth factor receptor 2 (Homo sapiens) (UniProt P35968). The experiment in a line: Inhibition of KDR (unknown origin) at < 10 uM.
In experiment [2] the target is Muscarinic acetylcholine receptor M1 (Homo sapiens) (UniProt P11229). The experiment in a line: Inhibition of muscarinic M1 receptor (unknown origin) at < 10 uM.
Experiment [3] addresses Histamine H3 receptor (Homo sapiens) (UniProt Q9Y5N1). As to the kind of experiment: Inhibition of Histamine H3 receptor (unknown origin) at < 10 uM.
In experiment [4] the target is Receptor tyrosine-protein kinase erbB-2 (Homo sapiens) (UniProt P04626). As to the kind of experiment: Inhibition of ERBB2 (unknown origin) at < 10 uM.

Activity calls are given as the source filed them. No cut-off for these calls is given here.

Turning to `c1cc(-c2ccc(Oc3ccc(CN4CCCCC4)nc3)nc2)[nH]n1`, the inhibition entry in experiment [1], in experiment [2], in experiment [3] and in experiment [4] was “Active” throughout.
As for `OC1CCN(Cc2ccc(Oc3ccc(-c4ccn[nH]4)cn3)cn2)CC1`, the inhibition result in experiment [1], in experiment [2], in experiment [3] and in experiment [4] was “inactive” in each case.
Regarding `c1cc(-c2ccc(Oc3ccc(CN4CCCC4)nc3)nc2)[nH]n1`, the inhibition entry in experiment [1], in experiment [2], in experiment [3] and in experiment [4] was “Active” in each case.
